Converted amounts (≈) assume the structure as drawn.
Tests used:
[1] = system: Acidovroax delafieldii ATCC 17505; experiment: Microbroth dilution MIC; assay type: cell-based
Protocol: (§1) Antimicrobial Assays. […] Susceptibility testing was performed using the microbroth dilution method in 96 round-well microtiter plates as previously described [A20]. Compounds were prepared as 50× of stocks (10 Mm) by dissolving in Di H2O. All bacterial strains were grown and assayed M9 glucose media (with amendments added as required), and yeast strains in YMM. Controls wells contained 200 µM kanamycin (for bacteria) or nystatin (for yeasts), no compound addition (vehicle only), and no cell addition (added media instead). Culture densities (OD600) were recorded using a Bio-Rad xMark microplate spectrophotometer after 16 hours for all strains except bacilli, which were recorded after 24 hours. […] MICs values are from triplicate assays performed on separate days. Disk diffusion assays were used to assess antimicrobial activity of the purified compounds against filamentous fungi and against Mycobacterium smegmatis [A20].

[2] = system: Pseudomonas fluorescens Pf5; experiment: Microbroth dilution MIC; assay type: cell-based
Protocol: as §1

[3] = system: Salmonella enterica ser. Tennessee E2007000304; experiment: Microbroth dilution MIC; assay type: cell-based
Protocol: as §1

[4] = system: Acidovorax citrulli ATCC 29625; experiment: Microbroth dilution MIC; assay type: cell-based; conditions: Paracidovorax citrulli, ATCC29625
Protocol: as §1

[5] = system: Pseudomonas medocina Palleroni ATCC 25411; experiment: Microbroth dilution MIC; assay type: cell-based; conditions: ATCC25411
Protocol: as §1

[6] = system: Acidovorax temperans ATCC 49665; experiment: Microbroth dilution MIC; assay type: cell-based; conditions: ATCC49665
Protocol: as §1

[7] = system: Acidovorax avenae ATCC 19860; experiment: Microbroth dilution MIC; assay type: cell-based; conditions: Paracidovorax avenae, ATCC19860
Protocol: as §1

[8] = system: Acidovorax konjacii ATCC 33996; experiment: Microbroth dilution MIC; assay type: cell-based
Protocol: as §1

[9] = system: Pseudomonas syringae pv. Tomato Max 14; experiment: Microbroth dilution MIC; assay type: cell-based
Protocol: as §1

[10] = system: Pseudomonas aeruginosa PA01; experiment: Microbroth dilution MIC; assay type: cell-based
Protocol: (§2) Antimicrobial Assays. Susceptibility testing was performed using the microbroth dilution method in 96 round-well microtiter plates following the general guidelines described by the Clinical and Laboratory Standards Institute (CLSI). Compounds were prepared as 50λ of stocks (10 mM) by dissolving in dI H2O. All bacterial strains were grown and assayed in Mueller-Hinton and M9 glucose media (with amendments added as required), and yeast strains in YMM. Overnight cultures were inoculated into 3 mL of fresh growth media following a 1:100 dilution. Upon mid-exponential growth (OD600 0.4-0.6), cultures were diluted to 5×10^6 CFU mL-1 (based on previously determined calibration curves) and used as inoculum into assay plates. Wells contained 100 μL of media with 5×10^5 CFU mL-1 of test organism, and serial ½-dilutions of the test compound (starting with 200 μM). E. coli WM6242 was assayed with induction of the phosphonic acid uptake system including 1 mM IPTG in assay wells. Controls wells contained 200 µM kanamycin (for bacteria) or nystatin (for yeasts), no compound addition (vehicle only), and no cell addition (added media instead). Microtiter plates were incubated with shaking (220 rpm) at their respective growth temperatures. Culture densities (OD600) were recorded using a Bio-Rad xMark microplate spectrophotometer after 16 hours for all strains except Bacillus, which were after 24 hours. Assays were performed in triplicated on separate independent days. […] Minimum inhibitory concentrations are from triplicate assays performed on separate days.
as §1

Pseudomonas aeruginosa K = experiment: Microbroth dilution MIC; assay type: cell-based
Protocol: as §2, §1

[11] = system: Enterobacter aerogenes CDC 1998-68; experiment: Microbroth dilution MIC; assay type: cell-based
Protocol: as §2, §1

[12] = system: Erwinia rhapontici KSJ3948; experiment: Microbroth dilution MIC; assay type: cell-based
Protocol: as §2, §1

[13] = system: Bacillus megaterium ATCC 19213; experiment: Microbroth dilution MIC; assay type: cell-based
Protocol: as §2, §1

[14] = system: Staphylococcus aureus ATCC 23055; experiment: Microbroth dilution MIC; assay type: cell-based
Protocol: as §2, §1

Escherichia coli K12 = experiment: Microbroth dilution MIC; assay type: cell-based
Protocol: as §2, §1

[15] = system: Pantoea ananatis LMG 20103; experiment: Microbroth dilution MIC; assay type: cell-based
Protocol: as §2, §1

[16] = system: Citrobacter freundii ATCC 8090; experiment: Microbroth dilution MIC; assay type: cell-based
Protocol: as §2, §1

[17] = system: Bacillus subtilis ATCC 6633; experiment: Microbroth dilution MIC; assay type: cell-based
Protocol: as §2, §1

Salmonella enterica LT2 = experiment: Microbroth dilution MIC; assay type: cell-based
Protocol: as §2, §1

Rhodococcus jostii RHA1 = experiment: Microbroth dilution MIC; assay type: cell-based
Protocol: as §2, §1

[18] = system: Serratia marcescens NRRL B-2544; experiment: Microbroth dilution MIC; assay type: cell-based
Protocol: as §2, §1

[19] = system: Acinetobacter calcoaceticus ATCC 23055; experiment: Microbroth dilution MIC; assay type: cell-based
Protocol: as §2, §1

[20] = system: Escherichia coli WM6242 (Pn Uptake Induced); experiment: Microbroth dilution MIC, phosphonate uptake induced with 1 mM IPTG; assay type: cell-based
Protocol: (§3) Antimicrobial Assays. […] Compounds were prepared as 50λ of stocks (10 mM) by dissolving in dI H2O. […] Overnight cultures were inoculated into 3 mL of fresh growth media following a 1:100 dilution. Upon mid-exponential growth (OD600 0.4-0.6), cultures were diluted to 5×10^6 CFU mL-1 (based on previously determined calibration curves) and used as inoculum into assay plates. Wells contained 100 μL of media with 5×10^5 CFU mL-1 of test organism, and serial ½-dilutions of the test compound (starting with 200 μM). E. coli WM6242 was assayed with induction of the phosphonic acid uptake system including 1 mM IPTG in assay wells. […] Microtiter plates were incubated with shaking (220 rpm) at their respective growth temperatures. […] Assays were performed in triplicated on separate independent days. […] Minimum inhibitory concentrations are from triplicate assays performed on separate days.

[21] = system: yeast, and filamentous fungi; experiment: Antifungal activity: microbroth dilution (yeasts) and disk diffusion (filamentous fungi); assay type: cell-based; conditions: panel of yeast and filamentous fungi (Table 12)
Protocol: Antimicrobial Assays. Susceptibility testing was performed using the microbroth dilution method in 96 round-well microtiter plates following the general guidelines described by the Clinical and Laboratory Standards Institute (CLSI). Compounds were prepared as 50λ of stocks (10 mM) by dissolving in dI H2O. All bacterial strains were grown and assayed in Mueller-Hinton and M9 glucose media (with amendments added as required), and yeast strains in YMM. Overnight cultures were inoculated into 3 mL of fresh growth media following a 1:100 dilution. Upon mid-exponential growth (OD600 0.4-0.6), cultures were diluted to 5×10^6 CFU mL-1 (based on previously determined calibration curves) and used as inoculum into assay plates. Wells contained 100 μL of media with 5×10^5 CFU mL-1 of test organism, and serial ½-dilutions of the test compound (starting with 200 μM). E. coli WM6242 was assayed with induction of the phosphonic acid uptake system including 1 mM IPTG in assay wells. […] Culture densities (OD600) were recorded using a Bio-Rad xMark microplate spectrophotometer after 16 hours for all strains except Bacillus, which were after 24 hours. […]
Antimicrobial Assays. […] Culture densities (OD600) were recorded using a Bio-Rad xMark microplate spectrophotometer after 16 hours for all strains except bacilli, which were recorded after 24 hours. […]

Escherichia coli WM6242 = experiment: Microbroth dilution MIC; assay type: cell-based
Protocol: as §3

[22] = system: Paenibacillus larvae NRRL B-2605; experiment: microbe, parasite or virus in culture
Protocol: as §1

[23] = system: Pseudomonas syringae B278a; experiment: microbe, parasite or virus in culture; assay type: cell-based
Protocol: as §1

CC(N)C(=O)NC(C)C(=O)NC(CP(=O)(O)O)C(=O)O (stereo not shown) [Compound 3]
MIC [1]: > 200 µM
MIC [2]: > 200 µM
MIC [3]: > 200 µM
MIC [4]: > 200 µM
MIC [5]: > 200 µM
MIC [6]: > 200 µM
MIC [7]: > 200 µM
MIC [8]: > 200 µM
MIC [9]: > 200 µM
MIC ([10]; Pseudomonas aeruginosa, PA01): > 200 µM
MIC ([10]; Table 13, Pseudomonas aeruginosa PA01, minimal media): >200 µM
MIC (Pseudomonas aeruginosa K; Pseudomonas aeruginosa): 25 µM (≈ 7.78 µg/mL)
antibacterial activity (in words) (Pseudomonas aeruginosa K; Pseudomonas aeruginosa K): active
MIC (Pseudomonas aeruginosa K; Table 13, Pseudomonas aeruginosa K, minimal media): 25 µM (≈ 7.78 µg/mL)
MIC ([11]; Klebsiella aerogenes, CDC199868): > 200 µM
MIC ([11]; Table 13, Enterobacter aerogenes CDC 1998-68, minimal media, ≥90% growth inhibition): >200 µM
antibacterial activity (in words) ([12]; Erwinia rhapontici): strong inhibition
MIC ([12]; Erwinia rhapontici, KSJ3948): 6.25 µM (≈ 1.95 µg/mL)
MIC ([12]; Table 13, Erwinia rhapontici KSJ3948, minimal media, ≥90% growth inhibition): 6.25 µM (≈ 1.95 µg/mL)
antibacterial activity (in words) ([13]; B. megaterium): strong inhibition
MIC ([13]; Priestia megaterium, ATCC19213): 6.25 µM (≈ 1.95 µg/mL)
MIC ([13]; Table 13, Bacillus megaterium ATCC 19213, minimal media): 6.25 µM (≈ 1.95 µg/mL)
MIC ([14]; Staphylococcus aureus, ATCC23055): > 200 µM
MIC ([14]; Table 13, Staphylococcus aureus ATCC 23055, minimal media): >200 µM
MIC (Escherichia coli K12; Escherichia coli, K12): 6.25 µM (≈ 1.95 µg/mL)
antibacterial activity (in words) (Escherichia coli K12; Escherichia coli, K12): active
MIC (Escherichia coli K12; Table 13, Escherichia coli K12, minimal media, ≥90% growth inhibition): 6.25 µM (≈ 1.95 µg/mL)
antibacterial activity (in words) ([15]; Pantoea ananatis): strong inhibition
MIC ([15]; Pantoea ananatis, LMG20103): 3.12 µM (≈ 0.971 µg/mL)
MIC ([15]; Table 13, Pantoea ananatis LMG 20103, minimal media, ≥90% growth inhibition): 3.12 µM (≈ 0.971 µg/mL)
MIC ([16]; Citrobacter freundii, ATCC8090): > 200 µM
MIC ([16]; Table 13, Citrobacter freundii ATCC 8090, minimal media, ≥90% growth inhibition): >200 µM
antibacterial activity (in words) ([17]; B. subtilis): strong inhibition
MIC ([17]; Bacillus subtilis, ATCC6633): 12.5 µM (≈ 3.89 µg/mL)
MIC ([17]; Table 13, Bacillus subtilis ATCC 6633, minimal media): 12.5 µM (≈ 3.89 µg/mL)
MIC (Salmonella enterica LT2; Salmonella enterica, LT2): 12.5 µM (≈ 3.89 µg/mL)
antibacterial activity (in words) (Salmonella enterica LT2; Salmonella enterica, LT2): active
MIC (Salmonella enterica LT2; Table 13, Salmonella enterica LT2, minimal media, ≥90% growth inhibition): 12.5 µM (≈ 3.89 µg/mL)
MIC (Rhodococcus jostii RHA1; Rhodococcus jostii, RHA1): > 200 µM
MIC (Rhodococcus jostii RHA1; Table 13, Rhodococcus jostii RHA1, minimal media): >200 µM
antibacterial activity (in words) ([18]; Serratia marcescens NRRL B-2544): active
MIC ([18]; Serratia marcescens, NRRLB2544): 200 µM (≈ 62.2 µg/mL)
MIC ([18]; Table 13, Serratia marcescens NRRL B-2544, minimal media): 200 µM (≈ 62.2 µg/mL)
MIC ([19]; Acinetobacter calcoaceticus, ATCC23055): > 200 µM
MIC ([19]; Table 13, Acinetobacter calcoaceticus ATCC 23055, minimal media): >200 µM
MIC [20]: > 200 µM
antifungal activity (in words) [21]: neither compound exhibited antifungal activity
antibacterial activity (in words) (Escherichia coli WM6242; Escherichia coli WM6242, encodes IPTG-inducible phosphonate uptake transporters): inactive
MIC (Escherichia coli WM6242; Escherichia coli, WM6242): > 200 µM
antibacterial activity (in words) [22]: strong inhibition
MIC ([22]; NRRLB2605): 12.5 µM (≈ 3.89 µg/mL)
MIC [23]: > 200 µM

— patent US20250325569A1, “COMPOSITIONS AND METHODS OF MAKING AND USE THEREOF” (Ohio State Innovation Foundation, priority 2022, published 2025)
